Drawing on EP4512396A1, “TARGETED COVALENT INHIBITORS FOR CARBONIC ANHYDRASES” (Vilnius University, priority 2023, dated 2025), this text covers Kd for one compound.

Chains of the proteins cited; added tags and fusions are not shown. Lines headed by an entry give the natural chain unless they say otherwise; changes in a name come on top.
UniProt P00915: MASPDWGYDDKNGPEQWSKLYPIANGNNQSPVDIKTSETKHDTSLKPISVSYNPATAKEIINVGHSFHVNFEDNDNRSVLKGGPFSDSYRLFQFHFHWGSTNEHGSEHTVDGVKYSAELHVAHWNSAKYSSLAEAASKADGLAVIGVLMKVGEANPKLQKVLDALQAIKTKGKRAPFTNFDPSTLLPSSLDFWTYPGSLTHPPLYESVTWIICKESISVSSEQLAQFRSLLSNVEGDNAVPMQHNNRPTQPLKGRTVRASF

One test has as its target CAI (Homo sapiens, UniProt P00915). Description: fluorescent thermal shift assay (FTSA). The format is binding. To be noted: FTSA at 37 °C and pH 7.0, read-out: Kd_app.
For a further test, the target named is CAIX (Homo sapiens, UniProt Q16790). The test is described as follows: fluorescent thermal shift assay (FTSA). The format is binding. Particulars: FTSA at 37 °C and pH 7.0, read-out: Kd_app.

Turning to `CC(=O)OCCSc1c(F)c(F)c(S(N)(=O)=O)c(F)c1F` [AV19-36, 2-((2,3,5,6-tetrafluoro-4-sulfamoylphenyl)thio)ethyl acetate], the Kd on CAI came out at 0.2 nM; on CAIX, 20 nM.
